Reference: publication PMC12051786, “Photoisomerization of Azobenzene‐Extended Charybdotoxin for the Optical Control of Kv1.2 Potassium Channel Activity” (Angewandte Chemie (International Ed. in English), 2025)

Protein sequences, listed by entry. Tags and fused reporters are not part of them.
UniProt P63141, whole entry: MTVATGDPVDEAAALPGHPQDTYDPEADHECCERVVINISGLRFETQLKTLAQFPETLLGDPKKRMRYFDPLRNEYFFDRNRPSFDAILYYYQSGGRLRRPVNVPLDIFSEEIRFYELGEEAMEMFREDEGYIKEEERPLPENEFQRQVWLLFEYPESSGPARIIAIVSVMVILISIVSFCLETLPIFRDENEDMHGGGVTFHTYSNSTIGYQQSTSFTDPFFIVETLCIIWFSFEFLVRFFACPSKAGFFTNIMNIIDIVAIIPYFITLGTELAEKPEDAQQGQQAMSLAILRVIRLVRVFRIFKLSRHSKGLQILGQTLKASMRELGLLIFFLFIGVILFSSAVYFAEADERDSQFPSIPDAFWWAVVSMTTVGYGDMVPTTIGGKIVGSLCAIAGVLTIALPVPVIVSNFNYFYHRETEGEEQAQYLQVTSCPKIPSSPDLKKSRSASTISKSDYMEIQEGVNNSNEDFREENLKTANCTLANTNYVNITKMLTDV

Key:
mouse Kv1.2 channels = target: T1, mouse Kv1.2 channels (Mus musculus, UniProt P63141); assay: Block of Kv1.2 K+ current, automated patch-clamp (SyncroPatch 384PE); format: cell-based
T1 construct: expressed in transfected cells; host or cells: L929 (mouse fibroblast) cell line stably expressing mKv1.2, kept under G418 selection

[1] = Photo-isomerization kinetics (trans/cis) followed by absorbance under illumination; format: physicochemical; settings: fold faster back-switching to trans

| Compound | Gain of potency of cis over trans configuration (mouse Kv1.2 channels; ratio of trans IC50 to cis IC50, Kv1.2) [fold] | Ratio (t1/2 trans → cis / t1/2 cis → trans) [1] | Reduction in potency of the cis over the trans configuration (mouse Kv1.2 channels; ratio of IC50 of cis component to trans IC50, Kv1.2) [fold] |
| --- | --- | --- | --- |
| C#CCNC(=O)c1ccc(/N=N/c2ccc(C(=O)NCc3cn(CC[C@@H]4NC(=O)[C@H](CCCCN)NC(=O)[C@H](CO)NC(=O)[C@H]([C@@H](C)O)NC(=O)[C@H]([C@@H](C)O)NC(=O)[C@@H](NC(=O)[C@H](CO)NC(=O)[C@@H](NC(=O)[C@H](CC(N)=O)NC(=O)[C@@H](NC(=O)[C@H](Cc5ccccc5)NC(=O)[C@@H]5CCC(=O)N5)[C@@H](C)O)C(C)C)CSSC[C@@H]5NC(=O)[C@H](CCCCN)NC(=O)CNC(=O)[C@H](CCCNC(=N)N)NC(=O)[C@H](CO)NC(=O)[C@H]([C@@H](C)O)NC(=O)[C@H](CC(N)=O)NC(=O)[C@H](Cc6c[nH]cn6)NC(=O)[C@H](CC(C)C)NC(=O)[C@H](CCCNC(=N)N)NC(=O)[C@H](CCC(N)=O)NC(=O)[C@@H]6CSSC[C@@H](C(=O)N[C@@H](Cc7ccc(O)cc7)C(=O)N[C@@H](CO)C(=O)O)NC(=O)[C@H](CCCNC(=N)N)NC(=O)[C@H](CSSC[C@H](NC4=O)C(=O)N[C@@H](Cc4c[nH]c7ccccc47)C(=O)N[C@@H](CO)C(=O)N[C@@H](C(C)C)C(=O)N6)NC(=O)[C@H](CCCCN)NC(=O)[C@H](CCCCN)NC(=O)[C@H](CC(N)=O)NC(=O)[C@H](CCSC)NC5=O)nn3)cc2)cc1 [ChTx‐Ah^12‐Az1] | 3.4 | 3.5 | – |
| C#CCNC(=O)c1ccc(/N=N/c2ccc(C(=O)NCc3cn(CC[C@@H]4NC(=O)[C@H]([C@@H](C)O)NC(=O)[C@@H](NC(=O)[C@H](CO)NC(=O)[C@@H](NC(=O)[C@H](CC(N)=O)NC(=O)[C@@H](NC(=O)[C@H](Cc5ccccc5)NC(=O)[C@@H]5CCC(=O)N5)[C@@H](C)O)C(C)C)CSSC[C@@H]5NC(=O)[C@H](CCCCN)NC(=O)CNC(=O)[C@H](CCCNC(=N)N)NC(=O)[C@H](CO)NC(=O)[C@H]([C@@H](C)O)NC(=O)[C@H](CC(N)=O)NC(=O)[C@H](Cc6c[nH]cn6)NC(=O)[C@H](CC(C)C)NC(=O)[C@H](CCCNC(=N)N)NC(=O)[C@H](CCC(N)=O)NC(=O)[C@@H]6CSSC[C@@H](C(=O)N[C@@H](Cc7ccc(O)cc7)C(=O)N[C@@H](CO)C(=O)O)NC(=O)[C@H](CCCNC(=N)N)NC(=O)[C@H](CSSC[C@H](NC(=O)[C@H](CCC(=O)O)NC(=O)[C@H](CCCCN)NC(=O)[C@H](CO)NC4=O)C(=O)N[C@@H](Cc4c[nH]c7ccccc47)C(=O)N[C@@H](CO)C(=O)N[C@@H](C(C)C)C(=O)N6)NC(=O)[C@H](CCCCN)NC(=O)[C@H](CCCCN)NC(=O)[C@H](CC(N)=O)NC(=O)[C@H](CCSC)NC5=O)nn3)cc2)cc1 [ChTx‐Ah^9‐Az1] | – | 4.1 | 218 |
